Experiment: Relative affinity for Dihydrofolate reductase of rat liver and Mycobacterium avium

Work on `COc1ccc(OCCCC(=O)O)cc1Cc1cnc(N)nc1N` yielded a Selectivity index of 560.

— ChEMBL document CHEMBL1136782, “Further studies on 2,4-diamino-5-(2',5'-disubstituted benzyl)pyrimidines as potent and selective inhibitors of dihydrofolate reductases from three major opportunistic pathogens of AIDS” (J Med Chem, 2003)
